Data reported in US20260193238A1, “PHARMACEUTICAL COMPOUNDS AS PARP7 AND/OR PARP1 INHIBITORS” (Duke Street Bio Limited, priority 2022, published 2026).

By UniProt entry, the sequences of proteins in these tests, tags left out. Residues count along the entry.
UniProt P09874, whole entry: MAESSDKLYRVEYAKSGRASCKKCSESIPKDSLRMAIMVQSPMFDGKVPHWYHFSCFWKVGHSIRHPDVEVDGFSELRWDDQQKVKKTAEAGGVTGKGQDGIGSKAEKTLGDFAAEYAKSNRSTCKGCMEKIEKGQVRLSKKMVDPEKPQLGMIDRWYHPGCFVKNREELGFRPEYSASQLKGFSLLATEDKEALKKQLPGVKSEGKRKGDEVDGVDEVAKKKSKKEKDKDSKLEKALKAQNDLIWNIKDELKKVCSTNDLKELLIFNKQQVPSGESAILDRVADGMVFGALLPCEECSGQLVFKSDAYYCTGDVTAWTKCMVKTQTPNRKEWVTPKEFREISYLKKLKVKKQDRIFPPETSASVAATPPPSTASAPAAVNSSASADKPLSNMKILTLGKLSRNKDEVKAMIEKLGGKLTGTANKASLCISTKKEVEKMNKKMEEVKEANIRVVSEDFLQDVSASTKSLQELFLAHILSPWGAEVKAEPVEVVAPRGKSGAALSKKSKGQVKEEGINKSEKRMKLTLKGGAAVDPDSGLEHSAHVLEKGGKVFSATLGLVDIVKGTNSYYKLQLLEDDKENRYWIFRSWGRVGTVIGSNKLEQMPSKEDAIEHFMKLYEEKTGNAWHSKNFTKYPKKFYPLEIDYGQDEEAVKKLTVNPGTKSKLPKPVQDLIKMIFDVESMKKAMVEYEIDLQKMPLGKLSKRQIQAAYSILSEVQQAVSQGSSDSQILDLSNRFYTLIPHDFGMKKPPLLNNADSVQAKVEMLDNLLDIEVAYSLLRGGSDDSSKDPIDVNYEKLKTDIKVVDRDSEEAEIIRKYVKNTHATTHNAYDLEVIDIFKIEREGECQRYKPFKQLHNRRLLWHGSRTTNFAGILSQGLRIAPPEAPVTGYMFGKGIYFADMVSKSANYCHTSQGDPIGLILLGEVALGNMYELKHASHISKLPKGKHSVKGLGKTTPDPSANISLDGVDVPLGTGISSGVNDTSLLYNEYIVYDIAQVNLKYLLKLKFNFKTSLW
UniProt Q7Z3E1, 456-657 limits assumed: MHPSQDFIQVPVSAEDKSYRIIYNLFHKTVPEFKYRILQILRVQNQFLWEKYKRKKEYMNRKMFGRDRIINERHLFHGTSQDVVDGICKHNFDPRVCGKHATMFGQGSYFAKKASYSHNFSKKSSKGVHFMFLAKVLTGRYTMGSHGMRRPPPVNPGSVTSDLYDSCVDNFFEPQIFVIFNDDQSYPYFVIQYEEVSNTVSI

Columns and labels:
PARP1 = PARP1 (Homo sapiens, UniProt P09874); assay: PARP1 biochemical DELFIA assay (auto-PARylation); details: read-out: PARP1 activity; Table 1A
[1] = molecular target: PARP7 (amino acids 456-657) (Homo sapiens, UniProt Q7Z3E1); assay: PARP7 biochemical DELFIA assay (auto-MARylation); details: read-out: PARP7 activity; Table 1A

| SMILES | IC50 (PARP1) [nM] | IC50 [1] [nM] |
| --- | --- | --- |
| N#Cc1cnc(N2CCN(C(=O)CN3CCCC3c3cc(C(F)(F)F)c(=O)[nH]n3)CC2)c(C(F)(F)F)c1 (single isomer, unassigned) [Compound 124b] | 10 to 100 | 10 to 100 |
| CN(c1ncc(C(F)(F)F)cn1)C1CN(C(=O)CN2CCCC2c2cc(C(F)(F)F)c(=O)[nH]n2)C1 (single isomer, unassigned) [Compound 127b] | 10 to 100 | 100 to 1000 |
| N#Cc1cc(Cl)cnc1N1CCN(C(=O)CN2CCCC2c2cc(C(F)(F)F)c(=O)[nH]n2)CC1 (single isomer, unassigned) [Compound 144a] | 1000 to 10000 | 1000 to 10000 |
| N#Cc1ccc2nc(N3CCN(C(=O)CN4CCCC4c4cc(C#N)c(=O)[nH]n4)CC3)oc2c1 (single isomer, unassigned) [Compound 145b] | 10 to 100 | < 10 |
| N#Cc1cc(F)cnc1N1CCN(C(=O)CN2CCCC2c2cc(C(F)(F)F)c(=O)[nH]n2)CC1 (single isomer, unassigned) [Compound 146a] | > 10000 | 1000 to 10000 |
